For the first experiment, the target named is T1, Neutrophil elastase (Homo sapiens) (UniProt P08246).
T1 sequence (whole entry): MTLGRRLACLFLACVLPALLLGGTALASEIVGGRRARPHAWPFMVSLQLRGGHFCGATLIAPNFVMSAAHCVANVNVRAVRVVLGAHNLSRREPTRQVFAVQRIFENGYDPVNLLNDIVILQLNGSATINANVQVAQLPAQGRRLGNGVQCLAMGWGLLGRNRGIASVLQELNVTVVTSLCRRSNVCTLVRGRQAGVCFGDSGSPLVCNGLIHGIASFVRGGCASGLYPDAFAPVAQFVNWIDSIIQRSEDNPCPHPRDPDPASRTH
The experiment is described as follows: Tested for the rate constant against Human Leukocyte Elastase (HLE) inactivation. Put shortly: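 HLE from human sputum, active-site titrated with MeO-Suc-Ala-Ala-Pro-Val-CH2Cl; 1–3 nM active enzyme. […] Substrate and inhibitor concentrations varied to derive kon and Ki(ss).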
With `CO[C@H]1C(=O)N2C(C(=O)c3ccccc3)=C(CSc3nnnn3C)CS(=O)(=O)C12` (stereo partly drawn), the k on was 1.8 M⁻¹ s⁻¹. In turn, `CO[C@H]1C(=O)N2C(C(=O)C(C)(C)C)=C(CSc3nnnn3C)CS(=O)(=O)C12` (stereo partly drawn) returned a k on of 1.9 M⁻¹ s⁻¹. As to `CO[C@H]1C(=O)N2C(C(=O)OC(C)(C)C)=C(C)[C@@H](Sc3ccccn3)S(=O)(=O)C12` (stereo partly drawn), the k on was found to be 4700 M⁻¹ s⁻¹.

With `CO[C@H]1C(=O)N2C(C(=O)C(C)(C)C)=C(CSc3nnnn3C)[C@@H](Sc3nnnn3C)S(=O)(=O)C12` (stereo partly drawn), the k on was found to be 2.6 M⁻¹ s⁻¹.

For the molecule `CO[C@H]1C(=O)N2C(C(=O)C(C)(C)C)=C(C)[C@@H](OC(=O)c3ccc(CSc4nc(=O)c(=O)[nH]n4C)cc3)S(=O)(=O)C12` (stereo partly drawn), the k on is 7 M⁻¹ s⁻¹.

`CO[C@H]1C(=O)N2C(C(=O)C(C)(C)C)=C(C)[C@@H](Sc3nnc(C)s3)S(=O)(=O)C12` (stereo partly drawn) displayed a k on of 47000 M⁻¹ s⁻¹. On the same count and under the same terms, the same measure for `CO[C@H]1C(=O)N2C(C(=O)C(C)(C)C)=C(COC(C)=O)[C@@H](Sc3nnnn3C)S(=O)(=O)C12` (stereo partly drawn): 2 M⁻¹ s⁻¹. The same measure, in the same setting: with `CC(=O)OCC1=C(C(=O)C(C)(C)C)N2C(=O)[C@H](Cl)C2S(=O)(=O)[C@@H]1Sc1nnnn1C` (stereo partly drawn) the figure was 5.7 M⁻¹ s⁻¹; with `CC(=O)OCC1=C(C(=O)c2ccccc2)N2C(=O)[C@H](Cl)C2S(=O)(=O)C1` (stereo partly drawn), 1.5 M⁻¹ s⁻¹. Still for that read-out and setting: with `CC(=O)CCC1=C(COC(C)=O)CS(=O)(=O)C2[C@@H](Cl)C(=O)N12` (stereo partly drawn) the figure was 2.1 M⁻¹ s⁻¹; with `CC1=C(C(=O)C(C)(C)C)N2C(=O)[C@H](Cl)C2S(=O)(=O)[C@@H]1Sc1nnnn1C` (stereo partly drawn), 1 M⁻¹ s⁻¹; with `CO[C@H]1C(=O)N2C(C(=O)C(C)(C)C)=C(C)[C@@H](OC(=O)c3ccccc3)S(=O)(=O)C12` (stereo partly drawn), 1.5e+06 M⁻¹ s⁻¹.

`CO[C@H]1C(=O)N2C(C(=O)C(C)(C)C)=C(C)[C@@H](OC(=O)c3ccc4ccccc4c3)S(=O)(=O)C12` (stereo partly drawn) gave a k on greater than 2e+06 M⁻¹ s⁻¹. Still for that read-out and setting: with `CO[C@H]1C(=O)N2C(C(=O)C(C)(C)C)=C(CSc3nnnn3C)[C@@H](OC(=O)c3ccccc3)S(=O)(=O)C12` (stereo partly drawn) the figure was greater than 2 M⁻¹ s⁻¹; with `CO[C@H]1C(=O)N2C(C(=O)C(C)(C)C)=C(CSc3ccccn3)CS(=O)(=O)C12` (stereo partly drawn), 23000 M⁻¹ s⁻¹. The same measure, in the same setting: with `CO[C@H]1C(=O)N2C(C(=O)c3ccccc3)=C(CSc3nnnn3C)[C@@H](Sc3nnnn3C)S(=O)(=O)C12` (stereo partly drawn) the figure was 2.2 M⁻¹ s⁻¹; with `Cn1nnnc1SCC1=C(C(=O)C(C)(C)C)N2C(=O)[C@H](Cl)C2S(=O)(=O)C1` (stereo partly drawn), 1.2 M⁻¹ s⁻¹; with `CO[C@H]1C(=O)N2C(C(=O)c3ccccc3)=C(C)[C@@H](Sc3nnnn3C)S(=O)(=O)C12` (stereo partly drawn), 2.3 M⁻¹ s⁻¹. `CO[C@H]1C(=O)N2C(C(=O)OC(C)(C)C)=C(CSc3ccccn3)CS(=O)(=O)C12` (stereo partly drawn) came in with a k on of 900 M⁻¹ s⁻¹. Same read-out and setting: with `CC(=O)OCC1=C(C(=O)C(C)(C)C)N2C(=O)[C@H](Cl)C2S(=O)(=O)C1` (stereo partly drawn) the figure was 2.3 M⁻¹ s⁻¹; with `CO[C@H]1C(=O)N2C(C(=O)C(C)(C)C)=C(CSc3nc(=O)c(=O)[nH]n3C)CS(=O)(=O)C12` (stereo partly drawn), 4.5 M⁻¹ s⁻¹; with `CC1=C(C(=O)c2ccccc2)N2C(=O)[C@H](Cl)C2S(=O)(=O)C1` (stereo partly drawn), 8 M⁻¹ s⁻¹. Regarding `CO[C@H]1C(=O)N2C(C(=O)C(C)(C)C)=C(C)[C@@H](Sc3nc(=O)c(=O)[nH]n3C)S(=O)(=O)C12` (stereo partly drawn), the k on was 5.3 M⁻¹ s⁻¹. In turn, `CO[C@H]1C(=O)N2C(C(=O)OC(C)(C)C)=C(CSc3nnnn3C)CS(=O)(=O)C12` (stereo partly drawn) showed a k on of 2 M⁻¹ s⁻¹. `CCC(=O)C1=C(COC(C)=O)CS(=O)(=O)C2[C@@H](Cl)C(=O)N12` (stereo partly drawn) displayed a k on of 7.3 M⁻¹ s⁻¹. Same read-out and setting: with `COCC1=C(C(=O)C(C)(C)C)N2C(=O)[C@H](Cl)C2S(=O)(=O)C1` (stereo partly drawn) the figure was 1.5 M⁻¹ s⁻¹; with `CO[C@H]1C(=O)N2C(C(=O)C(C)(C)C)=C(C)[C@@H](S(=O)(=O)c3ccccc3)S(=O)(=O)C12` (stereo partly drawn), 280000 M⁻¹ s⁻¹; with `CO[C@H]1C(=O)N2C(C(=O)C(C)(C)C)=C(COC(C)=O)CS(=O)(=O)C12` (stereo partly drawn), 24000 M⁻¹ s⁻¹. Still for that read-out and setting: the same measure for `CO[C@H]1C(=O)N2C(C(=O)C(C)(C)C)=C(C)[C@@H](Sc3ccccn3)S(=O)(=O)C12` (stereo partly drawn): 82000 M⁻¹ s⁻¹. Same read-out and setting: the same measure for `CC1=C(C(=O)c2ccccc2)N2C(=O)[C@H](Cl)C2S(=O)(=O)[C@@H]1Sc1nnnn1C` (stereo partly drawn): 1.3 M⁻¹ s⁻¹. `CC1=C(C(=O)C(C)(C)C)N2C(=O)[C@H](Cl)C2S(=O)(=O)C1` (stereo partly drawn) gave a k on of 2.1 M⁻¹ s⁻¹. On the same count and under the same terms, with `CO[C@H]1C(=O)N2C(C(=O)C(C)(C)C)=C(C)[C@@H](Sc3nnnn3C)S(=O)(=O)C12` (stereo partly drawn) the figure was 1 M⁻¹ s⁻¹; with `CC(=O)OCC1=C(C(=O)Cc2ccccc2)N2C(=O)[C@H](Cl)C2S(=O)(=O)C1` (stereo partly drawn), 4.9 M⁻¹ s⁻¹. Regarding `COC(=O)C1=C(COC(C)=O)CS(=O)(=O)C2[C@@H](Cl)C(=O)N12` (stereo partly drawn), the k on worked out at 1.3 M⁻¹ s⁻¹.

For another experiment, the target named is T1, Neutrophil elastase (Homo sapiens). Description: Tested for inhibition of Human Leukocyte Elastase (HLE) in living polymorphonuclear leukocytes. The format is cell-based. Further details: scale not given: the % may be the effect or the level left. The essentials: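 Human PMNs from citrated venous blood, 5 × 10^6 cells/mL, exposed to inhibitor (10 μg per mL, in DMSO) for 15 min at 37 °C, then washed three times. Stimulated with cytochalasin B for 5 min, then fMLP for 15 min. Supernatant elastase assayed with N-acetyl-Ala-Ala-Pro-Ala-7-(4-methyl)coumarylamide, 6 h at 25 °C, fluorescence read; DMSO-only controls.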
As for `CO[C@H]1C(=O)N2C(C(=O)N3CCCC3)=C(CSc3nc(=O)c(=O)[nH]n3C)CS(=O)(=O)C12` (stereo partly drawn), the Activity turned out to be 98%. Same read-out and setting: the same measure for `CO[C@H]1C(=O)N2C(C(=O)C(C)(C)C)=C(CSc3nc(=O)c(=O)[nH]n3C)CS(=O)(=O)C12` (stereo partly drawn): 70%; for `CO[C@H]1C(=O)N2C(C(=O)C(C)(C)C)=C(C)[C@@H](Sc3nc(=O)c(=O)[nH]n3C)S(=O)(=O)C12` (stereo partly drawn): 102%. `CO[C@H]1C(=O)N2C(C(=O)C(C)(C)C)=C(C)[C@@H](Sc3nnnn3C)S(=O)(=O)C12` (stereo partly drawn) returned an Activity of 100%.

The record behind these values is ChEMBL document CHEMBL1127413, “Cephem sulfones as inactivators of human leukocyte elastase. 5. 7 alpha-Methoxy- and 7 alpha-chloro-1,1-dioxocephem 4-ketones” (J Med Chem, 1994).
